Converted amounts (≈) assume the structure as drawn.
Experiments:
[1] = tested on: Escherichia coli 285 (AB1157, CIPR, overexpresses efflux)
[2] = tested on: Escherichia coli 287 (AB1157, CIPR, overexpresses efflux)
[3] = tested on: Escherichia coli AB1157; settings: E. coli AB1157
[4] = tested on: Salmonella enterica ATCC 14028
[5] = tested on: Enterobacter aerogenes ATCC 13048
[6] = tested on: P. aeruginosa ATCC 27853
[7] = tested on: Klebsiella pneumoniae ATCC 700603
[8] = tested on: Escherichia coli ATCC 25922; assay: MIC assay (microbroth dilution) ± 25 μM EPI; settings: E. coli ATCC 25922
[9] = tested on: Escherichia coli 331; assay: MIC assay (microbroth dilution) ± 25 μM EPI; settings: Escherichia coli, 331, read-out: MIC (μg/ml) ± EPI: None
[10] = tested on: Shigella flexneri ATCC 12022; assay: MIC assay (microbroth dilution) ± 25 μM EPI
[11] = highest ratio of MIC (no compound)/MIC (MBX2319)
[12] = MIC no cmpd/MIC + 25 μM MBX2319

In the case of `CO/N=C(\C(=O)N[C@@H]1C(=O)N2C(C(=O)O)=C(COC(C)=O)CS[C@H]12)c1csc(N)n1` [CEF, cefotaxime], the “MIC (μg/ml) with MBX2319 at concn (μM) of: 1.56” value ([1]; MBX2319 1.56 μM) is reported as 0.125 µg/mL, the “MIC (μg/ml) with MBX2319 at concn (μM) of: 12.5” value ([1]; MBX2319 […]) is reported as 0.063 µg/mL and the “MIC ratios 2319” value [1, 11] is reported as 8. The “MIC (μg/ml) with MBX2319 at concn (μM) of: 1.56” value ([2]; MBX2319 1.56 μM) was 0.125 µg/mL, the “MIC (μg/ml) with MBX2319 at concn (μM) of: 3.13” value ([2]; MBX2319 3.13 μM) was 0.125 µg/mL and the “MIC (μg/ml) with MBX2319 at concn (μM) of: 12.5” value ([2]; MBX2319 […]) was 0.063 µg/mL. The “MIC ratios 2319” value [2, 11] was 4, the “MIC ratio MBX2319” value [3, 12] was 4.8 and the “MIC ratio PAβN” value ([3]; MIC no cmpd/MIC + 25 μM PAβN) was 0.42. For the same compound, the “MIC ratio MBX2319” value [4, 12] was 3.4, the “MIC ratio PAβN” value ([4]; MIC no cmpd/MIC + 25 μM PAβN) was 0.7 and the “MIC ratio MBX2319” value [5, 12] was 0.8. The “MIC ratio PAβN” value ([5]; MIC no cmpd/MIC + 25 μM PAβN) was 0.3, the “MIC ratio MBX2319” value [6, 12] was 6.7 and the “MIC ratio PAβN” value ([6]; MIC no cmpd/MIC + 25 μM PAβN) was 2.8. The “MIC ratio MBX2319” value [7, 12] was 1, the “MIC ratio PAβN” value ([7]; MIC no cmpd/MIC + 25 μM PAβN) was 1 and the “MIC ratio MBX2319” value [8, 12] was 1.2. The “MIC ratio PAβN” value ([8]; MIC no cmpd/MIC + 25 μM PAβN) was 0.3, the MIC [9] was 0.125 µg/mL (≈ 0.274 µM) and the “MIC ratio MBX2319” value [10, 12] was 2. For the same compound, the “MIC ratio PAβN” value ([10]; MIC no cmpd/MIC + 25 μM PAβN) was 1.

— patent publication US9540389B2, “Antimicrobial potentiators” (priority 2013, dated 2017)
